Source: patent US20190177414A1 (AKESO BIOPHARMA, published 2019)

T1: CTLA4 on the surface of cells (UniProt P16410 36-223, limits assumed)
T1 construct: whole, on cells; One entry is used for both cell types; the assay field says which cells; also called CTLA-4 target protein on the surface of T cells
T1 sequence (looked up): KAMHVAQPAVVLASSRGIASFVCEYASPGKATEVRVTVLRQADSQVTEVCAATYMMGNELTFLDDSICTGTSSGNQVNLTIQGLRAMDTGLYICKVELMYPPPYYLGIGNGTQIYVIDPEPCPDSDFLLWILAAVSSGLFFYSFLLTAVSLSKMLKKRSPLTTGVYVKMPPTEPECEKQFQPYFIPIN

T2: CTLA4 antigen (CTLA4 protein obtained by cleaving the CTLA4-mFc fusion protein with TEV protease) (human, UniProt P16410 36-161)
T2 construct: extracellular domain; after cleavage part of the TEV site may remain at the C-terminus; also called CTLA4ECD
T2 sequence (looked up): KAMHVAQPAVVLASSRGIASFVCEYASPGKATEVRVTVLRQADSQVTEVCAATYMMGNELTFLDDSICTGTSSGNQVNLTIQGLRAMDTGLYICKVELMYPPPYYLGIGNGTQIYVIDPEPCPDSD

T3: cyno CTLA-4 (cyno, UniProt G7PL88 36-161)
T3 sequence: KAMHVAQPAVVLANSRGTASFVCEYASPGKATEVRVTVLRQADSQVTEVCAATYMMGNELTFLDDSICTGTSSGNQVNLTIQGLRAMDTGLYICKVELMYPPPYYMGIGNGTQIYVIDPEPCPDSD


Key:
[1] = target: T1, CTLA4 on the surface of cells; assay: flow cytometry on 293T-CTLA4 cells
CTLA4-mFc fusion protein [2] = target: T4, CTLA4-mFc fusion protein (human); assay: competitive ELISA; competitor B7-1-hFc coated 1 ug/ml; CTLA4-mFc 0.3 ug/ml
T4 construct: also called CTLA4-mFc antigen

[3] = target: T2, CTLA4 antigen (CTLA4 protein obtained …); assay: indirect ELISA; CTLA4 coated 2 ug/ml
cyno CTLA-4 = target: T3, cyno CTLA-4; assay: absorbance at 450 nm against antibody concentration (ELISA-type readout; the text describes no method for this figure)
[4] = target: T2, CTLA4 antigen (CTLA4 protein obtained …); assay: indirect ELISA; CTLA4 coated 0.5 ug/ml
CTLA4-mFc fusion protein [5] = target: T4, CTLA4-mFc fusion protein; assay: competitive ELISA; competitor B7-1-hFc coated 0.5 ug/ml; CTLA4-mFc 0.3 ug/ml

| EC50 [1] [nM] | EC50 (CTLA4-mFc fusion protein [2]) [nM] | EC50 [3] [nM] | EC50 (read off the curve) (cyno CTLA-4) [nM] | EC50 [4] [nM] | EC50 (CTLA4-mFc fusion protein [5]) [nM] | Binder |
| --- | --- | --- | --- | --- | --- | --- |
| 5.4 | 0.481 | 0.063 | ~0.1 | – | – | humanized antibody 4G10H3L3 (antibody, V domains shown) VH: QVQLVESGAEVKKPGASVKVSCKASGYSFTGYTMNWVRQAPGQGLEWIGLINPYNNITNYAQKFQGRVTFTVDTSISTAYMELSRLRSDDTGVYFCARLDYRSYWGQGTLVTVSA VL: QAVVTQEPSLTVSPGGTVTLTCGSSTGAVTTSNFPNWVQQKPGQAPRSLIGGTNNKASWTPARFSGSLLGGKAALTISGAQPEDEAEYYCALWYSNHWVFGGGTKLTVLR |
| – | – | – | – | 0.074 | 1.37 | humanized antibody 4G10H1L1 (antibody, V domains shown) VH: QVQLVESGAELVKPGASMKISCKASGYSFTGYTMNWVKQAPGQGLEWIGLINPYNNITNYNQKFMGKATFTVDKSISTAYMELSRLTSDDSGVYFCARLDYRSYWGQGTLVTVSA VL: QAVVTQEPSLTVSPGGTVTLTCGSSTGAVTTSNFANWVQEKPGQAFRSLIGGTNNRASWVPARFSGSLLGGKAALTISGAQPEDEAEYFCALWYSNHWVFGGGTKLTVLR |
